Measurements reported in patent publication US10494332B2, “Protein tyrosine phosphatases or SHP2 inhibitors and uses thereof” (Indiana University Research and Technology Corporation, priority 2015, dated 2019).

Test: Pharmacokinetics and bioavailability in guinea pigs
Type: in vivo
Conditions: guinea pig, plasma, po
[1] = Co-admin of L335M34 (50 mg/kg) and L01Z08 (20 mg/kg)
[2] = Single, L335M34 50 mg/kg, L01Z08 20 mg/kg

SMILES: Cc1c(Br)cc(NC(=O)CS(=O)(=O)O)cc1Br
- half-life [1]: 4.16 h
- half-life [2]: 5.2 h

SMILES: O=C(O)c1cc2c(C#Cc3cccc(C(F)(F)F)c3)c(-c3ccccc3)oc2cc1O [Compound L01Z08]
- half-life [1]: 6.14 h
- half-life [2]: 5.51 h
